Target: Multidrug resistance-associated protein 1 (Homo sapiens, UniProt P33527)
Assay: Activity of MRP1

By UniProt entry, the sequences of proteins in these tests, tags left out. Where a name states a change or a piece, a line headed by the entry shows the natural chain unless it says otherwise.
UniProt P33527: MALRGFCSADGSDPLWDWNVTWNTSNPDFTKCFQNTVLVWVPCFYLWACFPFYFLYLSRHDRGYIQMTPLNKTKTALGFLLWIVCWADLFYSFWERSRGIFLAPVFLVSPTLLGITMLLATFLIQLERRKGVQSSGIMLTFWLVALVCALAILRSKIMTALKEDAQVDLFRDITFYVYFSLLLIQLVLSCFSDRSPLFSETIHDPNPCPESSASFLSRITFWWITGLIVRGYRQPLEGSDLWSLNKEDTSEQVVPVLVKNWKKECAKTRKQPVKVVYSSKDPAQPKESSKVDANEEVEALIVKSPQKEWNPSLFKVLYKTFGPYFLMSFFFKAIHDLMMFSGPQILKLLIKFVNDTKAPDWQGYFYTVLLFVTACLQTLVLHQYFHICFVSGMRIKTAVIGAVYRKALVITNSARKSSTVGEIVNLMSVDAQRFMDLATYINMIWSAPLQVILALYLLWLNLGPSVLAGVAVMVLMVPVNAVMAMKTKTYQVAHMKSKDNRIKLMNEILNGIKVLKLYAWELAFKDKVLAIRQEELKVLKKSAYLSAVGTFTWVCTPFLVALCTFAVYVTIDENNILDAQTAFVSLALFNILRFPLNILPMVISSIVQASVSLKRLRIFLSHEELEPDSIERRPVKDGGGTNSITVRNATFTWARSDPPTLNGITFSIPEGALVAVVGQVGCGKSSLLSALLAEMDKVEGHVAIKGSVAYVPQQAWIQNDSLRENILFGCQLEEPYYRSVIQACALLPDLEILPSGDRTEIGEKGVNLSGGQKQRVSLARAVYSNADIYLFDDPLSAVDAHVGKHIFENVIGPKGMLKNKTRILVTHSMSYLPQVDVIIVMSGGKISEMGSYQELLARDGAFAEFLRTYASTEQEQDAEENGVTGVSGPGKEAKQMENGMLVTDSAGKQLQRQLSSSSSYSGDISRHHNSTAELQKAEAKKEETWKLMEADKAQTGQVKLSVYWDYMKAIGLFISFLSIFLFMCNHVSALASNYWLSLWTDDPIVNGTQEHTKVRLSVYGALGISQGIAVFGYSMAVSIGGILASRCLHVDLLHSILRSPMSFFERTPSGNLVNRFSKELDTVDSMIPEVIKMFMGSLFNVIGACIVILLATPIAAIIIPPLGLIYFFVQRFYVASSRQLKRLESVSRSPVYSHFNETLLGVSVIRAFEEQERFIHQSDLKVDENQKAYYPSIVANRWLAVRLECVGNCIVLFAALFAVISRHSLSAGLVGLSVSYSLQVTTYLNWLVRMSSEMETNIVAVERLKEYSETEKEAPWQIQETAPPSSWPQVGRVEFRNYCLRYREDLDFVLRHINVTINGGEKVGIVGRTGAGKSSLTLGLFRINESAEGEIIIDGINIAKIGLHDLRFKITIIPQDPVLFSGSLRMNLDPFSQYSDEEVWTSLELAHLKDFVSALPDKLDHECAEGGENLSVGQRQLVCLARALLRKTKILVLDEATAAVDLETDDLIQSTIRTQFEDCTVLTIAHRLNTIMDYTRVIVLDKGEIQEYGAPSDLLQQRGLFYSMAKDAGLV

Compound N[C@@H](CCC(=O)N[C@@H](CS[As](SC[C@H](NC(=O)CC[C@H](N)C(=O)O)C(=O)NCC(=O)O)SC[C@H](NC(=O)CC[C@H](N)C(=O)O)C(=O)NCC(=O)O)C(=O)NCC(=O)O)C(=O)O has a Km of 320 nM.

Reference: ChEMBL document CHEMBL1140936, “Topological polar surface area defines substrate transport by multidrug resistance associated protein 1 (MRP1/ABCC1)” (J Med Chem, 2009)
